Data taken from patent US20020143062A1, “Method to incorporate N-(4-hydroxyphenyl) retinamide in liposomes” (Board of Regents, The University of Texas System, priority 2000, published 2002).

Key:
Assay in all cases: NO production, nitrite (Table 10)
Format in all cases: cell-based
Details in all cases: 4HPR 0 μM, Herceptin +
[1] = test system: BT-474
Text: (§1) Liposomal 4-HPR has been associated with the suppression of genes linked to ER-negative breast cancer such as the Her2/neu oncogene, and epidermal growth factor receptor (EGFR). Overexpression/amplification of the Her-2/neu oncogene has been associated with poor prognosis for breast cancer. Herceptin, is a biologic agent that targets the human epidermal growth factor receptor-2 (HER2), has been clinically proven in treating breast cancer. […] The data further indicate that by blocking or suppressing Her-2/neu expression in ER-negative breast cancer cells, induction of iNOS and it production of NO is increased thereby inducing growth inhibition and apoptosis in these cells.

[2] = test system: SK-Br-3
Text: as §1

[3] = test system: MDA-MB-453
Text: as §1

Herceptin: monoclonal antibody that attaches itself to Her-2/neu
Nitrite (NO production) [1]: 67.7 ± 0.3 μM Nitrite /1 × 10^6 cells | Nitrite (NO production) [2]: 35.5 ± 1.2 μM Nitrite /1 × 10^6 cells | Nitrite (NO production) [3]: 28.5 ± 1.3 μM Nitrite /1 × 10^6 cells
